# Binding of CDR-mutated scFvs to a peptide of the spike HR2 region

The measurements come from Engelhart et al. 2022 (doi:10.1038/s41597-022-01779-4) through the FLAb antibody collection.

Target peptide (SARS-CoV-2 spike, HR2 region): PDVDLGDISGINAS

Parent: Ab-14, a human scFv built as VH, three GGGGS repeats, VL. Only the CDRs of the heavy chain vary.
VH: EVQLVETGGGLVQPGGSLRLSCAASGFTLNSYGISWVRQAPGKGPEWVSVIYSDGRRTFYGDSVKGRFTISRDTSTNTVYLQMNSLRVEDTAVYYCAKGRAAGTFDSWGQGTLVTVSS
VL: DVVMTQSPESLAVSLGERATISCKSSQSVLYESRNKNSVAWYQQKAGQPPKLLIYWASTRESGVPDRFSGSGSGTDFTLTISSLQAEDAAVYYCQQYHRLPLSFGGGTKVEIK

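The parent was found by panning a naive human phage display library on the peptide. In library AAYL49, one, two or three CDR residues were substituted; doubles and triples were drawn at random. Affinity was read by AlphaSeq, a pooled yeast mating assay with surface-displayed partners. Mating (16 h, 30 °C) was followed by selection of diploids and sequencing of their barcodes. Each replicate has its own calibration line, from reference interactions of the BCL2 family. Each pool was mated in three replicate cultures.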

The whole VH of each variant is written out. Values are log10 of the apparent Kd in nM; lower means stronger binding. Averages over replicates are reported, and they cover detected replicates only. An entry "ND" has no value in the source: the pair was not observed among the diploids in that replicate. This suggests poor binding but is not conclusive. For reference, the parent read 0.65 as the reference entry and 4.11 (one replicate of three) as a member of this library. As a blank, each scFv also met three strains without target: over library AAYL49, 15% of these pairings were detected, typically at 4.06 and seldom below 2.83. The control count says in how many pairings with the empty strains this scFv gave a signal, with their mean in brackets.

VH	replicates, log10 nM	mean log10 Kd (nM)	signal with controls
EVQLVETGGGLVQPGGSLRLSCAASGGTLNPYGISWVRQAPGKGPEWVSVIYSDGRRTFYGDSVKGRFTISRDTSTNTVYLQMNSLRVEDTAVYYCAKGRAAGTPDSWGQGTLVTVSS	5.59 / 4.38 / 3.74	4.57	5/9 (4.52)
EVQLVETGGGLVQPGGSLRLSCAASGFTLNDYGISWVRQAPGKGPEWVSVIYSDGRRTFYSDSVKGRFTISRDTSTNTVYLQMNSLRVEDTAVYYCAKDRAAGTFDSWGQGTLVTVSS	0.41 / 0.42 / 0.14	0.32	2/9 (4.41)
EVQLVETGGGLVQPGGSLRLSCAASGFTLNVYGIKWVRQAPGKGPEWVSVIYSDGRRTFYGDSVKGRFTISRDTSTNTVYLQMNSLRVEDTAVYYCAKGRAAPTFDSWGQGTLVTVSS	3.20 / ND / 3.28	3.24	1/9 (3.40)
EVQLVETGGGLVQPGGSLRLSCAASGFTLNSYGISWVRQAPGKGPEWVSVIYSNGRRTFYGDSVVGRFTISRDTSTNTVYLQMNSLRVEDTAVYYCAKGRAAGTFDSWGQGTLVTVSS	ND / ND / ND	ND	0/9
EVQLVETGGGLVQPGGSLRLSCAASGFTLNSYGISWVRQAPGKGPEWVSLIYSDGRRTFTGDQVKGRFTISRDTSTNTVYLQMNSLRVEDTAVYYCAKGRAAGTFDSWGQGTLVTVSS	ND / ND / ND	ND	0/9
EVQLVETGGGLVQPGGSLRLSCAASGFTLNSYGISWVRQAPGKGPEWVSVLYSDGRRTFYGDSVKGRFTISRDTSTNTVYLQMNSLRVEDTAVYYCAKGRAYGIFDSWGQGTLVTVSS	ND / 4.26 / ND	4.26	1/9 (4.17)
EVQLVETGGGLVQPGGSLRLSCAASGFTLNSYWISWVRQAPGKGPEWVSVIYSDHRRGFYGDSVKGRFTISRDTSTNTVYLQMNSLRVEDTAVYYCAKGRAAGTFDSWGQGTLVTVSS	ND / ND / ND	ND	1/9 (3.45)
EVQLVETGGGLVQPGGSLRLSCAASPFTLNSYGISWVRQAPGKGPEWVSVIYSDGRRTPYGDSVQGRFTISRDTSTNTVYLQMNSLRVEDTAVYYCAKGRAAGTFDSWGQGTLVTVSS	ND / ND / ND	ND	0/9
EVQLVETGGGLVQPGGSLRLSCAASGFTLNSYGISWVRQAPGKGPEWVSVIKGDGRRTFYGDKVKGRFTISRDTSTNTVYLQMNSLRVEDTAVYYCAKGRAAGTFDSWGQGTLVTVSS	ND / ND / ND	ND	0/9
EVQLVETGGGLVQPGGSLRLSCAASGFTLCSYGISWVRQAPGKGPEWVSVIYSDGFRTFYGSSVKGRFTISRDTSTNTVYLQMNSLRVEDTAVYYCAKGRAAGTFDSWGQGTLVTVSS	ND / 1.98 / 2.84	2.41	0/9
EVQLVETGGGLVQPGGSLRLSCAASGFTLNSYGISWVRQAPGKGPEWVSVIYEDGRRTFYGDSVKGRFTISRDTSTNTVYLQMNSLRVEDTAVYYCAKPMAAGTFDSWGQGTLVTVSS	ND / ND / ND	ND	0/9
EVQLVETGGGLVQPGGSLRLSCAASGFTLNWYGISWVRQAPGKGPEWVSNIYSDGRRTFYGDSVKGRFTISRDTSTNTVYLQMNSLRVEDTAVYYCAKGRAAGFFDSWGQGTLVTVSS	ND / 3.90 / ND	3.90	6/9 (4.33)
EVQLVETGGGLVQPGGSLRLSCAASGFTLNSWGISWVRQAPGKGPEWVSVIYSDGRRTFYGDSVKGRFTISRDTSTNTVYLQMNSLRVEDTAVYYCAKGRAAGTDDSWGQGTLVTVSS	ND / 2.99 / ND	2.99	0/9
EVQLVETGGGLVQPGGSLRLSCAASGFTLNSYGISWVRQAPGKGPEWVSVIYSDGRRTIYGDRVKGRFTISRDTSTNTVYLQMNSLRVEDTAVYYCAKGRAAGTADSWGQGTLVTVSS	3.37 / ND / ND	3.37	0/9
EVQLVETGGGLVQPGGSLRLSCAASRNTLNSYGISWVRQAPGKGPEWVSVIYSDGRRTFYGDSVKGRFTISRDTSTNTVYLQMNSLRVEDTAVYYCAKGRAAGTFDSWGQGTLVTVSS	1.60 / 2.25 / 2.11	1.99	0/9
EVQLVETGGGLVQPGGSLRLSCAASGFTLNSTGFSWVRQAPGKGPEWVSVIYSDGRRTFYGDSVKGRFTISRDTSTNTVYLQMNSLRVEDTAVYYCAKGRLAGTFDSWGQGTLVTVSS	ND / ND / ND	ND	1/9 (4.69)
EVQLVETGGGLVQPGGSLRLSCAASGFTLNSYGTSWVRQAPGKGPEWVSVIYSDGLRTFYGDSVAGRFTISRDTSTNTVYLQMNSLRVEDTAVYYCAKGRAAGTFDSWGQGTLVTVSS	ND / ND / ND	ND	0/9
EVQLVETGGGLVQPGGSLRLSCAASGFTLNSCGISWVRQAPGKGPEWVSVITSDGRRTFYGDYVKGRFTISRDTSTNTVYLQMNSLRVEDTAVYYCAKGRAAGTFDSWGQGTLVTVSS	7.08 / 4.00 / 4.82	5.30	9/9 (4.59)
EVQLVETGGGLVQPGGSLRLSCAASGFTLNSYGISWVRQAPGKGPEWVSVIYSDLRRTFYGDSVKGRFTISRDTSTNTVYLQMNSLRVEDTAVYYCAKGRAAGTFDPWGQGTLVTVSS	4.86 / ND / ND	4.86	1/9 (4.90)
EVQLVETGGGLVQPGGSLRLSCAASGFTLNSYGVSWVRQAPGKGPEWVSVIYSDGRRTFYGDSVKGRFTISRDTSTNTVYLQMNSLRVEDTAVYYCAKGRKAGTFDSWGQGTLVTVSS	ND / 3.46 / ND	3.46	3/9 (4.35)
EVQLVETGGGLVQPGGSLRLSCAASGFTLNSYGISWVRQAPGKGPEWVSVIYSDGNRTHYADSVKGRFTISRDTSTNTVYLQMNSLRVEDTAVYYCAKGRAAGTFDSWGQGTLVTVSS	1.14 / 1.12 / 1.16	1.14	4/9 (3.69)
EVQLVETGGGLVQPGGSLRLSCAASWFTLNSYGISWVRQAPGKGPEWVSVIHSDGIRTFYGDSVKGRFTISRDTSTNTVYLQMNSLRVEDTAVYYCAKGRAAGTFDSWGQGTLVTVSS	ND / ND / ND	ND	1/9 (4.46)
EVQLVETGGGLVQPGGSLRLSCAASGFTLNSYGISWVRQAPGKGPEWVSVIYSDGYITFYGDSVKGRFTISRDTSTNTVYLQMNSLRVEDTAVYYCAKGRAAGKFDSWGQGTLVTVSS	4.22 / ND / 4.55	4.38	3/9 (3.99)
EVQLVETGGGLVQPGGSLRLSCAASGFTLNSYGISWVRQAPGKGPEWVSVIYSDGRRTFYGDSQKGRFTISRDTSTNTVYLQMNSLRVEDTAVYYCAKVGAAGTFDSWGQGTLVTVSS	ND / 3.51 / ND	3.51	0/9

The 2 strongest on average among those seen in every replicate, once more:

| VH | replicates, log10 nM | mean log10 Kd (nM) | signal with controls |
|---|---|---|---|
| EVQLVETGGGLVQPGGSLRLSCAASGFTLNDYGISWVRQAPGKGPEWVSVIYSDGRRTFYSDSVKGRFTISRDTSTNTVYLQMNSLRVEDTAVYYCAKDRAAGTFDSWGQGTLVTVSS | 0.41 / 0.42 / 0.14 | 0.32 | 2/9 (4.41) |
| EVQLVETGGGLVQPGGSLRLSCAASGFTLNSYGISWVRQAPGKGPEWVSVIYSDGNRTHYADSVKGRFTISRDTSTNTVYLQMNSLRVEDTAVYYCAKGRAAGTFDSWGQGTLVTVSS | 1.14 / 1.12 / 1.16 | 1.14 | 4/9 (3.69) |